HCMV UL50-53 inh: cytomegalovirus nuclear egress complex inhibition | HTRF UL50-UL53 interaction, normalized percent inhibition | inhibition, % (test concentration not listed) | 0.15% of 190,000 active; in the data active means inhibition above about 27%, passing the limit was not always enough
GIV-Gai inh: blocks GIV peptide binding to rat Galpha-i3. P08753. Galpha-i3/FITC-GIV peptide fluorescence polarization, 90 min; stronger effect = lower value; scaled: aluminum fluoride 0%, vehicle 100%. percent of control (FP), % (concentration not given with the values). hit rate 0.42% among 210,000. AID 1224905;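 active means replicate mean at 85% of control or lower, very high polarization wells dropped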;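 further: wells of about 15 µL received 100 nL stock; the first replicate is given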
Numbers without * were called inactive; . = not tested or not shown. Only a selection was taken, and hits are over-represented in it overall.

Below each compound – HCMV UL50-53 inh, GIV-Gai inh
1: CN(C)c1ccc(/C=C2\C(=O)NC(=O)N(C3CCCC3)C2=O)o1
  ., -41.6*
2: CN1CCc2c1nc1ccccc1c2N=C1CCCN1c1ccccc1
  -2.3, 101.0
3: CCCCCCC(CC[n+]1c(/C=C/C=C2N(CC)c3cc(Cl)c(Cl)cc3N2CC)n(CC)c2cc(Cl)c(Cl)cc21)S(=O)(=O)[O-] (stereo not given)
  ., 108.8
4: CCCCCN1/C(=C\C=C\c2n(CCCC)c3cc(Cl)c(Cl)cc3[n+]2CCCCC)N(CCCC)c2cc(Cl)c(Cl)cc21
  ., -62.4*
5: Cc1ccccc1-c1nn2c(=O)cc(N3CCN(S(=O)(=O)Cc4ccccc4)CC3)nc2s1
  -8.7, 100.7
6: CC(C)c1ccc(S(=O)(=O)N2CCN(c3cc(=O)n4nc(-c5ccccc5)sc4n3)CC2)cc1
  43.0*, 101.4
7: Cc1cccc(-c2nn3c(=O)cc(N4CCN(S(=O)(=O)c5ccccc5C)CC4)nc3s2)c1
  -5.0, 105.4
8: CCOc1ccc(S(=O)(=O)N2CCN(c3cc(=O)n4nc(-c5ccccc5)sc4n3)CC2)cc1
  45.0*, 100.6
9: CCCCC(CC)CNc1ncnc2c1oc1ccccc12 (stereo not given)
  -23.0, .
10: O=C(O)CCc1nc2ccc(C(=O)O)cc2[nH]1
  ., 100.4
11: C=Cc1c(C)c2cc3[nH]c(cc4nc(cc5nc(cc1[nH]2)C(C)=C5CCC(=O)O)C(CCC(=O)O)=C4C)c(C)c3C=C
  85.9*, 105.9
12: CN(C)c1ccc(C=Nc2ccc3[nH]c(=O)[nH]c3c2)cc1
  -38.1, .
13: O=c1oc2cc(O)ccc2cc1-c1nc(-c2ccccc2F)no1
  -29.8, -62.2*
14: O=c1oc2cc(O)ccc2cc1-c1csc(-c2ccccc2Cl)n1
  4.9, 111.7
15: Cc1ccc(-c2nc(SCc3cc(=O)c4cc(C(N)=O)ccc4[nH]3)n[nH]2)cc1
  17.1, 101.5
16: CCCCCCc1cc2cc(C#N)c(=O)oc2cc1O
  -20.2, -3.8*
17: CCN(CC)c1ccc2cc(C#N)c(=O)oc2c1
  -19.5, .
18: Cc1cc2oc(=O)cc(C)c2c2c1C(=O)CC(c1ccc3c(c1)OCO3)O2 (stereo not given)
  -4.2, 99.7
19: COc1ccc2cc3c(nc2c1)N(S(=O)(=O)c1cc(C)ccc1OC)CC3
  -6.8, 105.6
20: CCOC(=O)C1=C(C)N=c2s/c(=C/c3cccc([N+](=O)[O-])c3O)c(=O)n2C1c1cc(OC)c(OC)c(OC)c1 (stereo not given)
  ., 108.3
21: CCOC(=O)C1=C(C)N=c2s/c(=C/c3cc(Br)cc([N+](=O)[O-])c3O)c(=O)n2C1c1ccccc1 (stereo not given)
  ., 26.5*
22: CCOC(=O)C1=C(C)N=c2s/c(=C/c3cc([N+](=O)[O-])ccc3O)c(=O)n2C1c1ccc(SC)cc1 (stereo not given)
  ., 26.5*
23: CCOC(=O)C1=C(C)N=c2s/c(=C/c3cc([N+](=O)[O-])ccc3N3CCN(C)CC3)c(=O)n2C1c1ccc(F)cc1 (stereo not given)
  ., 100.2
24: CCCS(=O)(=O)c1csc(C(=O)OC)c1Cl
  6.5, 110.3
25: CC12CCC(C(C)(C)O)C(CC(=O)O1)C2 (stereo not given)
  -8.3, 100.3
26: O=C(Oc1cccc2ccccc12)c1ccccc1Cl
  -13.5, .
27: CCOC(=O)C1C(c2ccc(Br)cc2)NC(=S)NC1(O)C(F)(F)F (stereo not given)
  ., 106.3
28: CN1C(=O)/C(=C\C=C\c2ccc(N(C)C)cc2)SC1=S
  ., 125.5
29: C#CCN1C(=O)S/C(=C/C=C/c2ccc(N(C)C)cc2)C1=O
  -24.1, -61.3*
30: COc1cc(/C=C2\N=C(c3ccccc3)N(c3ccc(Br)c(C)c3)C2=O)cc(OC)c1OC
  ., 108.8
31: CCOc1cc(C2C(C#N)=C(N)Oc3n[nH]c(C)c32)ccc1OCc1cccc(F)c1 (stereo not given)
  ., 104.4
32: Cc1ccc(NC(=O)c2noc3c2CCCC3)cc1
  2.5, 98.1
33: Cn1c(=O)c2nc3ccc(NC(=O)c4ccccc4)cc3nc2n(C)c1=O
  ., 110.1
34: Cn1c(=O)c2nc3ccc(N)cc3nc2n(C)c1=O
  ., 18.9*
35: CC(C)OC1(c2ccccc2)OC(=O)c2ccccc21 (stereo not given)
  ., 100.2
36: CC(C)OC1(O)C(=O)c2ccccc2C(=O)C1(O)OC(C)C (stereo not given)
  99.2*, .
37: CCCN1CCN(CCCNC(=O)c2ccc3c(c2)sc2nc(-c4ccccc4)cn23)CC1
  8.5, 112.3
38: COC(=O)c1ccc2c(c1)C1C=CCC1C(c1cccc3ccccc13)N2 (stereo not given)
  -24.5, 114.2
39: O=C(O)c1ccc2c(c1)C1C=CCC1C(c1cccc3ccccc13)N2 (stereo not given)
  35.4*, 109.2
40: CCOC(=O)c1cnc2c(ccc3ccccc32)c1NCCOC(=O)c1cccnc1
  ., 98.3

Part of the list above, with tabs:
no.	Structure	HCMV UL50-53 inh	GIV-Gai inh
29	C#CCN1C(=O)S/C(=C/C=C/c2ccc(N(C)C)cc2)C1=O	-24.1	-61.3*
31	CCOc1cc(C2C(C#N)=C(N)Oc3n[nH]c(C)c32)ccc1OCc1cccc(F)c1 (stereo not given)	.	104.4

Results in sequence from the list.
HCMV UL50-53 inh, entries 10 to 14: ., 85.9*, -38.1, -29.8, 4.9
GIV-Gai inh, entries 10 to 14: 100.4, 105.9, ., -62.2*, 111.7

Carrying on:
Below each compound – HCMV UL50-53 inh, GIV-Gai inh
41: Cc1cc(C)cc(NC(=O)c2oc3c(c2C)-c2[nH]ncc2CC3)c1
  ., 110.0
42: Cc1c(C(=O)O)oc2c1-c1[nH]ncc1CC2
  61.0*, 98.1
43: Cc1cc(C)cc(NC(=O)CN2C(=O)CCc3ccccc32)c1
  ., 104.8
44: COc1cc(OC)c(Nc2c(C(=O)N3CCOCC3)cnc3ccccc23)cc1Cl
  -27.8, 84.7*
45: Cc1c(Cl)cccc1Nc1c(C(=O)N2CCOCC2)cnc2ccccc12
  -14.5, 99.3
46: COc1ccc2oc(C(=O)OCC(=O)c3ccc4c(c3)OCO4)c(C)c2c1
  -20.4, .
47: CCOC(=O)CNC(=O)Nc1c(-c2ccc(Cl)cc2)[nH]c2ccccc12
  ., 105.6
48: Cn1nc(C(C)(C)C)cc1NC(=O)Nc1ccc(Cl)cc1
  -9.8, .
49: Cn1nccc1NC(=O)Nc1ccc(Cl)cc1
  65.6*, 101.6
50: COc1ccc(N=Cc2ccc(N(C)CCC#N)cc2)cc1
  -30.1, 101.6
51: CC(C)/C=C1\CC/C(=C\c2ccc(Cl)cc2)C1=O
  ., 102.6
52: CN(CCC#N)c1ccc(/C=C2\CC/C(=C\c3ccc(N(C)CCC#N)cc3)C2=O)cc1
  -52.9, -40.8*
53: CCN(CC)c1ccc(/C=C2\CC/C(=C\C(C)C)C2=O)cc1
  -42.6, -87.6*
54: CCOc1c(C(=O)OC)sc2ccc(NC(=O)Nc3cc(Cl)ccc3OC)cc12
  ., 102.5
55: CCn1c(=O)c(-c2noc(C(=O)NC3CCCC3)n2)nn(-c2ccc(F)cc2)c1=O
  -47.3, 100.7
56: O=c1n(Cc2ccccc2F)nc2c(S(=O)(=O)N3CCc4ccccc4C3)cccn12
  ., 111.3
57: Oc1ccc(NC(=S)Nc2ccc(O)cc2)cc1
  -11.4, 108.2
58: CNc1ccc(O)cc1
  68.9*, .
59: Cc1nnc(NC(=O)CSc2nc(=O)[nH]c3c2CCC3)s1
  ., 105.5
60: Nc1nnc2cc(C(=O)c3cc(F)ccc3O)cnn12
  -9.6, .
61: Cc1ccc(O)c(C(=O)c2cnn3c(N)nnc3c2)c1
  50.7*, .
62: O=C(CSc1ncnc2c1oc1ccccc12)NC1CCCCC1
  62.5*, .
63: O=C(CSc1ncnc2c1oc1ccccc12)NCc1ccccc1
  5.8, .
64: Cc1cc(C(=O)O)ccc1-n1c(C)ccc1C
  34.3*, 96.8
65: Cc1ccc(C(=O)O)cc1-n1c(C)ccc1-c1ccccc1
  6.5, 102.9
66: CS(=O)(=O)N1CCCCCC1
  -12.5, 97.2
67: Cc1ccccc1OCc1nnc(SCC(N)=O)n1C
  -6.8, .
68: CN(C)/C=c1\s/c(=C/C(=O)c2cccs2)[nH]c1=O
  -90.8, 72.5*
69: O=C(/C=c1/[nH]c(=O)/c(=C/c2ccccc2C(F)(F)F)s1)c1ccco1
  -10.5, .
70: CCOC(=O)N1CCC(n2c(SCC(=O)Nc3ccc(OC)cc3OC)nc3ccsc3c2=O)CC1
  -1.3, 98.3
71: O=[N+]([O-])c1cccc(N=Cc2sc3ccccc3c2O)c1
  -24.4, 106.8
72: COc1ccc(N=Cc2sc3ccccc3c2O)cc1
  ., -32.1*

Entries shown so far with a CF3 group (2):
Below each compound – HCMV UL50-53 inh, GIV-Gai inh
27: CCOC(=O)C1C(c2ccc(Br)cc2)NC(=S)NC1(O)C(F)(F)F (stereo not given)
  ., 106.3
69: O=C(/C=c1/[nH]c(=O)/c(=C/c2ccccc2C(F)(F)F)s1)c1ccco1
  -10.5, .

Screening data deposited in PubChem by ICCB-Longwood Screening Facility, Harvard Medical School.
